Experimental data published in the Kinase Knowledgebase extract (Sharma et al. 2016).

The chains behind the UniProt entries cited, without tags or fusion partners.
UniProt P42336, whole entry, looked up: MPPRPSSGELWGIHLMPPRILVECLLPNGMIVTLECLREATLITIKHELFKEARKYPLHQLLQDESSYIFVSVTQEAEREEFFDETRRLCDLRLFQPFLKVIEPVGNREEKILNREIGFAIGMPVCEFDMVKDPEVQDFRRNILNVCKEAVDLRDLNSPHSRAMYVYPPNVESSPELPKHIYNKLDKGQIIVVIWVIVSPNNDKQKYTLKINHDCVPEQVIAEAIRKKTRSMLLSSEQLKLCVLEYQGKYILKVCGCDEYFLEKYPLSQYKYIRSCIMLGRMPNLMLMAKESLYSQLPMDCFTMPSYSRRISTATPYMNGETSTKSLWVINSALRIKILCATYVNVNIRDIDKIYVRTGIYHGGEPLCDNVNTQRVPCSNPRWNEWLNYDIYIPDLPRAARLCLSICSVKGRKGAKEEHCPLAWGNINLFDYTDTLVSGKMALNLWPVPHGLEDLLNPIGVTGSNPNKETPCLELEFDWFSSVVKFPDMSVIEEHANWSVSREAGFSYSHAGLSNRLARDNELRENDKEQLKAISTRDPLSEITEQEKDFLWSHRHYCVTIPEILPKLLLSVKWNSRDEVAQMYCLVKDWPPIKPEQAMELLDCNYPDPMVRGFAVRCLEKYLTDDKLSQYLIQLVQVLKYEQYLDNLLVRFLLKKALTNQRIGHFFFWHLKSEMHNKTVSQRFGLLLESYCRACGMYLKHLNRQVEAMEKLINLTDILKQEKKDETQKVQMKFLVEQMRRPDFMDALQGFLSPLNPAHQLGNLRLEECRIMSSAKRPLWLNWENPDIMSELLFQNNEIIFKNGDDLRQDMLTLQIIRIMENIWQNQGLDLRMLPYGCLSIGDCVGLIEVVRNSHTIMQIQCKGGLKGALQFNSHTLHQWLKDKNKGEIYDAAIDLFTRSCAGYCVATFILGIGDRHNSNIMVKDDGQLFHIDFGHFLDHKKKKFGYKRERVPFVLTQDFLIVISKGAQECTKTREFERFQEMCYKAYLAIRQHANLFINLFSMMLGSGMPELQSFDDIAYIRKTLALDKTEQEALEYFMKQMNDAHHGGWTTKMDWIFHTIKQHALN

Biological target: PIK3CA (human) (UniProt P42336)
Assay: Cell-Based Assay
Settings: bt474

IC50: > 9.13 µM
SMILES: Cn1c(=O)n([C@H]2CCOC2)c2c3cc(-c4ccc(OCCCN5CCCCC5)nc4)ccc3ncc21
